Test results: ChEMBL document CHEMBL1833926, “Bicyclic heteroaryl inhibitors of stearoyl-CoA desaturase: from systemic to liver-targeting inhibitors” (Bioorg Med Chem Lett, 2011)

Molecular target: T1, Stearoyl-CoA desaturase (Homo sapiens, UniProt O00767)
T1 sequence (O00767 whole entry): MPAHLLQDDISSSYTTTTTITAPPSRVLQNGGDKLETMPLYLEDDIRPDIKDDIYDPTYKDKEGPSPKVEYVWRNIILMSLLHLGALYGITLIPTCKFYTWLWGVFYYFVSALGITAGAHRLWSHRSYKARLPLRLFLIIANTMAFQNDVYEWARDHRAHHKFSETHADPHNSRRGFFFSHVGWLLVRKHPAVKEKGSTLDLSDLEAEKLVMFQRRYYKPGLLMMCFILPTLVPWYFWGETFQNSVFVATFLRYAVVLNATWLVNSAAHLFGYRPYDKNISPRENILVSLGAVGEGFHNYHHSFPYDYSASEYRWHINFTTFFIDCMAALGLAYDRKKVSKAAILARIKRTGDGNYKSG
Experiment: Inhibition of SCD1 in human HepG2 cells
Assay type: cell-based

IC50: 162 nM
Structure (SMILES): Nc1ncnc2[nH]c(N3CCC(Oc4ccccc4C(F)(F)F)CC3)nc12
